# Apparent affinities of Ab-14 variants for a coronavirus HR2 peptide

Binding partner: SARS-CoV-2 spike HR2 peptide, sequence PDVDLGDISGINAS.

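This is the validation round: designs drawn from the data on random variants, tested in the same kind of assay. Group labels follow the data file (En: ensemble of fine-tuned language models; GP: Gaussian process model; HC: hill climbing; Gen: genetic algorithm; Gibbs: Gibbs sampling; a sequence that several methods proposed may carry one label only). Affinity was read by AlphaSeq, a pooled yeast mating assay with surface-displayed partners. Pairs that bind mate more often; barcode pairs of the diploids are counted by sequencing. The ratio of observed to expected reads was calibrated, replicate by replicate, on BCL2-family standards whose Kd was known from biolayer interferometry. Each pool was mated in six replicate cultures.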

Parent scFv Ab-14: VH joined to VL by three GGGGS repeats. Changes lie in the light chain CDRs alone.
VH: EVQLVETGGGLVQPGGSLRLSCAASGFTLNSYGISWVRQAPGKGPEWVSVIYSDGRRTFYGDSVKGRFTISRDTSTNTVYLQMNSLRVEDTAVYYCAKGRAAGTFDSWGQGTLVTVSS
VL: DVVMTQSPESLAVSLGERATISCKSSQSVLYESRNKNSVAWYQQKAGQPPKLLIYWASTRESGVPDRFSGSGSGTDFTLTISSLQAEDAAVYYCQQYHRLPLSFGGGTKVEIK

Variants are written as CDR1, CDR2 and CDR3 of the light chain (limits as in the source). Parent: KSSQSVLYESRNKNSVA, WASTRES, QQYHRLPLS. Variants here have more than six changes. Kd is apparent (estimated from mating counts) and averaged on the log scale over replicates with a signal. Smaller is tighter. A pair that was not seen in any replicate is written "nd"; this usually means weak binding, but a binder can also be missed. In the paper, a design with two or fewer of six values counts as a poor binder. The parent sequence was in this pool as ten entries: three were never detected, three once, and four in most replicates, with averages from 2.2 nM to 240 nM. Three control strains display no target. For all light chain designs, 4% of the pairings with them gave a signal, with a median of 430 nM and one signal in twenty below 38 nM, so weak values seen in few replicates may be background. The range of this assay differs from that of the first round, and the authors advise against merging the two.

For QFTQNTFYGQRDDNSIA / HADELVK / QQYDRFPLD [En_Gibbs], the assay gave 42 nM (6 of 6 replicates). The variant KSQMSWEYESRNSNSVA / HASTREL / QQYHRLPLI [GP_Gibbs] gave 17 nM (6 of 6 replicates). With KVKQSWLYESRMQNNVA / NASLRES / QQYHRLPLS [GP_Gibbs] the result was 9.8 nM (6 of 6 replicates). For KLHQSWLYESRNINSVA / NASQRCS / QQYHRLPLS [GP_Gibbs], the assay gave 840 pM (6 of 6 replicates). The variant TISQSFMMENQFKNSVA / QANTRES / QCYDRLPLS [En_HC] gave 16 nM (6 of 6 replicates). The variant NIQDNEGGLSSQWNSVA / STEERSD / QSYHRLPLS [En_Gibbs] gave 6.0 nM (6 of 6 replicates).

For KLSPSWLYEERNDNSVA / NASQRES / QQYHRLPLS [GP_Gibbs], the assay gave 950 pM (6 of 6 replicates). With KLRQVTGYEMYNKDSVA / QTSTRVS / QDYHRLPLS [En_HC] the result was 3.8 nM (6 of 6 replicates). The variant KIFQSWLYEQRNVNSVA / HASQRLD / QQYHRLPLS [GP_Gibbs] gave 5.7 nM (6 of 6 replicates). With KISMTVTFESRNKNSVA / ENSTRES / QSYHRLPLS [En_HC] the result was 1.0 µM (3 of 6 replicates). The variant HMNKFMSQIGGARNNVA / GDDTLAQ / QHYHRLPLS [En_Gibbs] showed nd (0 of 6 replicates). For NIYQAMHTLMQAKNNVA / DVTERNN / QQYFRLPLS [En_Gen], the assay gave 1.9 nM (6 of 6 replicates).

For KLSQSQEYESRNKNSVA / DASQRLV / QQYHRLPLS [GP_Gibbs], the assay gave 540 pM (6 of 6 replicates). With ALGDVTRMESNKKNSIA / DMSNRAS / QQYHRLPLS [En_HC] the result was 20 nM (6 of 6 replicates). The variant MIGQGLMGESRAKNSIA / QASLRFD / QQYHRLPLI [En_HC] gave 130 nM (2 of 6 replicates). For ALGDVTRMESNKKNSIA / DMSTREN / QQYHRLPLS [En_HC], the assay gave 1.3 nM (6 of 6 replicates). The variant KWEYSVDGESRNKNAVA / QASQREQ / QQYHRLPLS [GP_Gibbs] showed 1.4 nM (6 of 6 replicates). The variant VLSASELYEDRMKNSVA / NASQRES / QQYHRLPLS [GP_Gibbs] gave 1.7 nM (6 of 6 replicates).

For MITAMLRGMGRDKNSVA / NAQTRES / QHYNRLPLS [En_HC], the assay gave 2.6 µM (5 of 6 replicates). The variant KCSQKVDYEDRNMNNVA / NASTRES / QDYHRLPLS [GP_Gibbs] showed 680 pM (6 of 6 replicates). With KLSMMYQHTSKNKNNIA / ERSTREE / QQYHHLPLS [En_HC] the result was 22 nM (6 of 6 replicates). The variant KLMQSPEYESRWKNSVA / NASQREE / QQYHRLPLS [GP_Gibbs] gave 1.7 nM (6 of 6 replicates). For KLTHPTDLWLNHASSIA / DARISEE / QQYYWLPLT [En_Gibbs], the assay gave 56 nM (6 of 6 replicates). The variant KLGQSTHIESFNKNNVA / EMTTRES / QSYDRLPLS [En_HC] gave 42 nM (6 of 6 replicates).

The variant FLQQSWEYESRNDNSVA / NASQRCW / QQYHRLPLS [GP_Gibbs] showed 2.3 nM (6 of 6 replicates). For GIHSQMFGTIAVKKNVA / NANTRLS / QQYSMLPLS [En_Gibbs], the assay gave 3.3 nM (6 of 6 replicates). With SLGLATMLEEYVRNSVA / NNSTREV / QQYDRLPLS [En_Gen] the result was nd (0 of 6 replicates). The variant MMSQVTGYGTRMRNNVA / QTSTREP / QQYDRLPLI [En_Gen] gave 10 nM (6 of 6 replicates). The variant KLQFSVDYESRNKNAVA / EASTREQ / QQYHRLPLS [GP_Gibbs] showed 410 pM (6 of 6 replicates). With KVSQCNGYESRMKNSVA / HASQRES / QQYHRLPLS [GP_Gibbs] the result was 8.5 nM (6 of 6 replicates).

The variant KITQTMRFEQKASNNIA / EVTLRSK / QQYYRLPLS [En_Gen] showed 8.3 nM (6 of 6 replicates). For ALSQDGFQQHGMRDSIA / HSDQRLA / QQYYHLPLA [En_Gibbs], the assay gave 2.3 nM (6 of 6 replicates). The variant HITYGMMVHGRHSKSIA / QAETRAK / QQYDRLPLS [En_Gen] gave 94 nM (3 of 6 replicates). The variant KLYQSMGYLSRNKNSIA / DMERREN / QQYHRLPLS [En_HC] gave 3.0 nM (6 of 6 replicates). With RLTQQMYGFNIHANAIA / SGAERQW / QQYARLPLS [En_Gibbs] the result was 47 nM (1 of 6 replicates). With KISFLTNQTFEQSNNVA / EMVTREK / QQYNRLPLS [En_Gen] the result was 4.6 nM (6 of 6 replicates).

The variant QLYEMNYELSGKTHSVA / DNSTRGE / QQYFRLPLE [En_Gen] gave 4.5 nM (6 of 6 replicates). With MISQLYNMGQFAINSVA / QAETRNE / QQYDRLPLM [En_Gen] the result was 110 nM (3 of 6 replicates).

Excerpt, the first 5 entries:

The variant QFTQNTFYGQRDDNSIA / HADELVK / QQYDRFPLD [En_Gibbs] showed 42 nM (6 of 6 replicates).
The variant KSQMSWEYESRNSNSVA / HASTREL / QQYHRLPLI [GP_Gibbs] showed 17 nM (6 of 6 replicates).
The variant KVKQSWLYESRMQNNVA / NASLRES / QQYHRLPLS [GP_Gibbs] showed 9.8 nM (6 of 6 replicates).
The variant KLHQSWLYESRNINSVA / NASQRCS / QQYHRLPLS [GP_Gibbs] showed 840 pM (6 of 6 replicates).
The variant TISQSFMMENQFKNSVA / QANTRES / QCYDRLPLS [En_HC] showed 16 nM (6 of 6 replicates).

Data: MIT Lincoln Laboratory AlphaSeq set, Li et al. 2023, doi:10.1038/s41467-023-39022-2, as distributed in FLAb.